Measurements taken from patent US12606561B2, “Substituted pyrazolo[1,5-a][1,3,5]triazines as CDK inhibitors” (QURIENT CO., LTD., priority 2018, dated 2026).

The chains behind the UniProt entries cited, without tags or fusion partners. Residues count along the entry.
UniProt P50613, whole entry: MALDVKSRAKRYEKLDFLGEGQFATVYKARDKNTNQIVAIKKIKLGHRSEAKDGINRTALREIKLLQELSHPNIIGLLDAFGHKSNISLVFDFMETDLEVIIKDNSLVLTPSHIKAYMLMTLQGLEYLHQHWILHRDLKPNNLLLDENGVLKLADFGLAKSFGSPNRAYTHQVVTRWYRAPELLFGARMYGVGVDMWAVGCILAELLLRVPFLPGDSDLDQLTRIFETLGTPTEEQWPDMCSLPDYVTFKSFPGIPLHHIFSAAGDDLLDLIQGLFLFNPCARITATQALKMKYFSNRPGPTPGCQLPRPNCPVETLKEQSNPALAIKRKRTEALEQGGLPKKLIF
UniProt P06493, whole entry: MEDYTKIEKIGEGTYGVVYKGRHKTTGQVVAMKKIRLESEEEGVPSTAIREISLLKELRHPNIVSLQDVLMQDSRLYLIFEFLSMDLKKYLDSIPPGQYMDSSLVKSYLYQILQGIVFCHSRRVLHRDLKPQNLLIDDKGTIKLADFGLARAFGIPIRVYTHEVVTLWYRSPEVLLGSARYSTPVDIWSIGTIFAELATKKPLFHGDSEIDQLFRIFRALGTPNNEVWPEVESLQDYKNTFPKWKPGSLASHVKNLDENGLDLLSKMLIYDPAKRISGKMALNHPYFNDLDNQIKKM
UniProt Q00535, whole entry: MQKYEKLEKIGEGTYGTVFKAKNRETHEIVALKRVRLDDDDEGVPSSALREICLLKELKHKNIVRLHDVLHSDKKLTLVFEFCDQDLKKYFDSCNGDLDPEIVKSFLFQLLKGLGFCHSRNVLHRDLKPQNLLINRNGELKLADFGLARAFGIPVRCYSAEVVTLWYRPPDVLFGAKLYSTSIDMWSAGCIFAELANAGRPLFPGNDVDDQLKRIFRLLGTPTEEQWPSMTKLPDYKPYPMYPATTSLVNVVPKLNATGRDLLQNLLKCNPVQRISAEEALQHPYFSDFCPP
UniProt P51948, whole entry partner: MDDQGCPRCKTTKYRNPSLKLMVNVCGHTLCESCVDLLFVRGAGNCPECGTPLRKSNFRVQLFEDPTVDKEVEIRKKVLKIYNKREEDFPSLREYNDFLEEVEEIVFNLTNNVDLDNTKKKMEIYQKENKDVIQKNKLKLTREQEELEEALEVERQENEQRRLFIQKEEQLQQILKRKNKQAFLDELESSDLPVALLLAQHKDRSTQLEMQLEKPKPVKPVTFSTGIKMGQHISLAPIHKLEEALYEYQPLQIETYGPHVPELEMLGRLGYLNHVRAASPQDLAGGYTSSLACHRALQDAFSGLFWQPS
UniProt P51946, whole entry partner: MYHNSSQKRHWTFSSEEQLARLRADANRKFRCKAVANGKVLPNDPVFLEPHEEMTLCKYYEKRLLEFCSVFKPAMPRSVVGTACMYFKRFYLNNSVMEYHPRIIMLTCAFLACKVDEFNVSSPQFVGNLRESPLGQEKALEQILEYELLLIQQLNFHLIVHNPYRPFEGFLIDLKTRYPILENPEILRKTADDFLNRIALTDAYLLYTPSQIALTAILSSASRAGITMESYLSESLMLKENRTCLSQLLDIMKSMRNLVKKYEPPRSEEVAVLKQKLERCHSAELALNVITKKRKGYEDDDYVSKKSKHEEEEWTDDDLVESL
UniProt Q15078, 99-307 partner limits assumed: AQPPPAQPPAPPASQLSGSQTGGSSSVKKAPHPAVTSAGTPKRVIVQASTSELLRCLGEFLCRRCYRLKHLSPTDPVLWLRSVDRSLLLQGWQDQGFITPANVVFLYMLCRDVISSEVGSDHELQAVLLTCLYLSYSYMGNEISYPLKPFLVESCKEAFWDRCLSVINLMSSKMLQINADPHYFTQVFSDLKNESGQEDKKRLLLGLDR
UniProt P14635, whole entry partner: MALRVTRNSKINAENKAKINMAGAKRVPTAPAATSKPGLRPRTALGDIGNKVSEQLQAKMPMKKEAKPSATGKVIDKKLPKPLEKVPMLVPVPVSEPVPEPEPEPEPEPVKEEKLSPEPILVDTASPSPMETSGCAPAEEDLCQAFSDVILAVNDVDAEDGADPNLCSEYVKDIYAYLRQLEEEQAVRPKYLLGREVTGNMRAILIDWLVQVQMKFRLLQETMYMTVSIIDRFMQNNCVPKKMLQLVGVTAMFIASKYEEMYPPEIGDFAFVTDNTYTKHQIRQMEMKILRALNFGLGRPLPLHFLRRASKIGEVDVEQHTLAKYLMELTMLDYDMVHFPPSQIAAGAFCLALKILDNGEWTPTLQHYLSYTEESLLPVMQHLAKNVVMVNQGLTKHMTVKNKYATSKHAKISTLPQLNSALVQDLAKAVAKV

Assays:
OVCAR-3 = OVCAR-3 viability assay (CellTiter-Glo, 72 hours); conditions: read-out: OVCAR-3 viability assay IC50; OVCAR-3 cells
Method: (§1) Human […] cell line, MV4-11_(ATCC, Cat #CRL-9591), NSCLC (Non-small cell lung cancer) cell line H460 (ATCC, Cat #HTB-177), A2780 (ECACC, Cat #93112519) and OVCAR-3(ATCC, Cat #HTB-161) were obtained from ATCC. Cells were grown in RPMI-1640 media (Invitrogen, Cat #22400-089) supplemented with 10% FBS (Invitrogen, Cat #10099141) and 1% penicillin/streptomycin (Invitrogen, Cat #15070063) and cultured at 37° C., 5% CO2 in a humidified chamber. All cell lines were routinely tested for mycoplasma.
(§2) To effect of the CDK7 inhibitor to inhibit the growth of target cancer cells, viability assay were conducted a 72 hour time period. Briefly, the candidate cell line was plated in 96 well plate at the following density of cells respectively. 1×10^4 cells/well for MV4-11, 5×10^3 for H460 and OVCAR-3, and 1×10^3 for A2780. After 24 hours, the cells were treated with various concentrations of the compound (ranging from 0.0015 uM to 10 uM). DMSO solvent without compound served as a control and final DMSO concentration lest than 0.1%. After 72 hours of incubation at 37° C., 5% CO2 incubator, cells were analyzed for the viability using the CellTiter-Glo Luminescent Cell Viability Assay (Promega, Cat #G7570). All viability assays were performed in duplicate and Luminescence was read using an Envision (Perkin Elmer, USA). Data was analyzed using XLfit software.

CDK2/Cyclin A = CDK2/Cyclin A (Homo sapiens, UniProt P24941); assay: Enzymatic assay for CDK2 (LANCE Ultra kinase assay, FRET based); conditions: read-out: CDK2 enzymatic activity IC50; ATP at Km
Method: (§3) Enzymatic Binding Assay Protocol for CDK1, CDK2, CDK5 and CDK7
(§4) Inhibition activity of the respective compound on CDK kinase under Km value of ATP was tested in FRET based The LANCE® Ultra kinase assay (Perkin Elmer), which uses a ULight™-labeled peptide substrate and an appropriate Europium-labeled anti-phospho-antibody. Test compounds were made with DMSO solutions, and then 4-fold serial dilutions for 8 doses were prepared using automated liquid handler (POD™ 810, Labcyte) and 80 nL/well of diluted compound solutions were added into the 384-well plates (Greiner, Cat #784075). And then 68 nM of ULight-MBP peptide (Perkin Elmer, Cat #TRF0109-M) and 5 ul/well of ATP (Sigma, Cat #A7699) were added to the plate. After 1 min centrifugation at 1000 rpm, purified CDKs/Cyclin complex were added with the following concentrations respectively. 24 uM for CDK1/Cyclin B (Invitrogen, Cat #PR4768C), 22 uM for CDK2/Cyclin A (Invitrogen, Cat #PV6290), 10 uM for CDK5/p25 (Invitrogen, Cat #PR8543B) and […] for CDK7/Cyclin H/MNAT1 (Invitrogen, Cat #PR6749B) were added to each corresponding plate for CDK1, CDK2, CDK5 and CDK7. […] After additional incubation at 23° C. for 60 min, test articles were measured the fluorescence using Envision leader (Perkin Elmer, USA) [Laser as excitation light; […] as the first and the second emission filter]. Data were analyzed using XL Fit software.

CDK7/Cyclin H/MNAT1 = CDK7/Cyclin H/MNAT1 (Homo sapiens, UniProt P50613); assay: Enzymatic assay for CDK7 (LANCE Ultra kinase assay, FRET based)
CDK1/Cyclin B = CDK1/Cyclin B (Homo sapiens, UniProt P06493); assay: Enzymatic assay for CDK1 (LANCE Ultra kinase assay, FRET based); conditions: read-out: CDK1 enzymatic activity IC50; ATP at Km
A2780 = A2780 viability assay (CellTiter-Glo, 72 hours); conditions: read-out: A2780 viability assay IC50; A2780 cells
Method: as §1, §2

MV4-11 = assay: Cellular MV4-11 viability assay (CellTiter-Glo, 72 hours); conditions: read-out: MV4-11 viability assay IC50; MV4-11 cells
Method: as §1, §2

CDK5/p25 = CDK5/p25 (Homo sapiens, UniProt Q00535); assay: Enzymatic assay for CDK5 (LANCE Ultra kinase assay, FRET based); conditions: read-out: CDK5 enzymatic activity IC50; ATP at Km
Method: as §3, §4

C/C=C/C(=O)Nc1cccc2ccc(-c3cccc(C)c3CNc3nc(NCC4CCNCC4O)nc4c(C(C)C)cnn34)nc12 (stereo not shown)
IC50 (OVCAR-3): 1000 to 10000 nM | IC50 (CDK2/Cyclin A): > 1000 nM | CDK1/CDK7: Selectivity of CDK7 inhibition over CDK1 inhibition (CDK7/Cyclin H/MNAT1; CDK7 over CDK1): A (A indicates [fold] > 500) | CDK2/CDK7: Selectivity of CDK7 inhibition over CDK2 inhibition (CDK7/Cyclin H/MNAT1; CDK7 over CDK2): A (A indicates [fold] > 500) | CDK5/CDK7: Selectivity of CDK7 inhibition over CDK5 inhibition (CDK7/Cyclin H/MNAT1; CDK7 over CDK5): A (A indicates [fold] > 500) | IC50 (CDK7/Cyclin H/MNAT1; read-out: CDK7 enzymatic activity IC50, ATP at Km): < 100 nM | IC50 (CDK1/Cyclin B): > 1000 nM | IC50 (A2780): 1000 to 10000 nM | IC50 (MV4-11): 1000 to 10000 nM | IC50 (CDK5/p25): > 1000 nM
